From BindingDB's records for doi:10.1021/acs.biochem.6b00261 (University of California Irvine, 2016) come the findings set out here.

Protein sequences, listed by entry. Tags and fused reporters are not part of them.
UniProt P29476, whole entry I269V/M336V/D597N: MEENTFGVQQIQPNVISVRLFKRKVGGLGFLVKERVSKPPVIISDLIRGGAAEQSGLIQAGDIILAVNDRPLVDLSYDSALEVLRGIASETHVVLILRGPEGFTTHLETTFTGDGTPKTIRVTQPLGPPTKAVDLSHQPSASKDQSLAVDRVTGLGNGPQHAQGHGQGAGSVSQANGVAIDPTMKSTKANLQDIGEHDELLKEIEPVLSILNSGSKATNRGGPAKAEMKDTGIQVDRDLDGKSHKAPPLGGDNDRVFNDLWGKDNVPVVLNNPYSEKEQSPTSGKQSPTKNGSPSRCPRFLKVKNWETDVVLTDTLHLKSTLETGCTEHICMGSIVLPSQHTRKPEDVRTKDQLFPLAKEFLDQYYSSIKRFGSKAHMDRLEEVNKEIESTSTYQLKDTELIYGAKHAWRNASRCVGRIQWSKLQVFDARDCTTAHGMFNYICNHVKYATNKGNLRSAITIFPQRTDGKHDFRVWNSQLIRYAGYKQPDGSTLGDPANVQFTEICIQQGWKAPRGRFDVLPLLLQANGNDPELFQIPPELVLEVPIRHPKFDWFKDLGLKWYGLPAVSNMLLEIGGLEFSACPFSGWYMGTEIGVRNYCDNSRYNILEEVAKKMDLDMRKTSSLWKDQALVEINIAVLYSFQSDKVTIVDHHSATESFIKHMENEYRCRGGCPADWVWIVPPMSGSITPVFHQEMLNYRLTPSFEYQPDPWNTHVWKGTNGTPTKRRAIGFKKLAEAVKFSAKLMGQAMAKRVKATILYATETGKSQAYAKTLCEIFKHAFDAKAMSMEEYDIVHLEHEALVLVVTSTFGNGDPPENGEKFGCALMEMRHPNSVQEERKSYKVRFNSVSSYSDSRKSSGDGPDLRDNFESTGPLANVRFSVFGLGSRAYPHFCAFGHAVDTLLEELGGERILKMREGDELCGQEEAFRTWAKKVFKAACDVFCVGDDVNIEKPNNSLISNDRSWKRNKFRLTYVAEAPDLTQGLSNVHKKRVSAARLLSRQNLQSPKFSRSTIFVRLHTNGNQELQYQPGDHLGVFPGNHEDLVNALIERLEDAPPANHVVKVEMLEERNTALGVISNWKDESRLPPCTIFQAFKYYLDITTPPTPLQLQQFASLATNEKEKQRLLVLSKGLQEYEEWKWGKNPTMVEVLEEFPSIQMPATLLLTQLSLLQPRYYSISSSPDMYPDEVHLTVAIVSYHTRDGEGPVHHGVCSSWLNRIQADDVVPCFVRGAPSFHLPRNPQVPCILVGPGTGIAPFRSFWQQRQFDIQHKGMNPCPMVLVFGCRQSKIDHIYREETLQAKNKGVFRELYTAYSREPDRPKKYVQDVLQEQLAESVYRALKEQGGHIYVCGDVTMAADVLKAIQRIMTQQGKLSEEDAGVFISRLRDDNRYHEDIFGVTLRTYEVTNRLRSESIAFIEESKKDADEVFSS
UniProt P29476, whole entry D597N: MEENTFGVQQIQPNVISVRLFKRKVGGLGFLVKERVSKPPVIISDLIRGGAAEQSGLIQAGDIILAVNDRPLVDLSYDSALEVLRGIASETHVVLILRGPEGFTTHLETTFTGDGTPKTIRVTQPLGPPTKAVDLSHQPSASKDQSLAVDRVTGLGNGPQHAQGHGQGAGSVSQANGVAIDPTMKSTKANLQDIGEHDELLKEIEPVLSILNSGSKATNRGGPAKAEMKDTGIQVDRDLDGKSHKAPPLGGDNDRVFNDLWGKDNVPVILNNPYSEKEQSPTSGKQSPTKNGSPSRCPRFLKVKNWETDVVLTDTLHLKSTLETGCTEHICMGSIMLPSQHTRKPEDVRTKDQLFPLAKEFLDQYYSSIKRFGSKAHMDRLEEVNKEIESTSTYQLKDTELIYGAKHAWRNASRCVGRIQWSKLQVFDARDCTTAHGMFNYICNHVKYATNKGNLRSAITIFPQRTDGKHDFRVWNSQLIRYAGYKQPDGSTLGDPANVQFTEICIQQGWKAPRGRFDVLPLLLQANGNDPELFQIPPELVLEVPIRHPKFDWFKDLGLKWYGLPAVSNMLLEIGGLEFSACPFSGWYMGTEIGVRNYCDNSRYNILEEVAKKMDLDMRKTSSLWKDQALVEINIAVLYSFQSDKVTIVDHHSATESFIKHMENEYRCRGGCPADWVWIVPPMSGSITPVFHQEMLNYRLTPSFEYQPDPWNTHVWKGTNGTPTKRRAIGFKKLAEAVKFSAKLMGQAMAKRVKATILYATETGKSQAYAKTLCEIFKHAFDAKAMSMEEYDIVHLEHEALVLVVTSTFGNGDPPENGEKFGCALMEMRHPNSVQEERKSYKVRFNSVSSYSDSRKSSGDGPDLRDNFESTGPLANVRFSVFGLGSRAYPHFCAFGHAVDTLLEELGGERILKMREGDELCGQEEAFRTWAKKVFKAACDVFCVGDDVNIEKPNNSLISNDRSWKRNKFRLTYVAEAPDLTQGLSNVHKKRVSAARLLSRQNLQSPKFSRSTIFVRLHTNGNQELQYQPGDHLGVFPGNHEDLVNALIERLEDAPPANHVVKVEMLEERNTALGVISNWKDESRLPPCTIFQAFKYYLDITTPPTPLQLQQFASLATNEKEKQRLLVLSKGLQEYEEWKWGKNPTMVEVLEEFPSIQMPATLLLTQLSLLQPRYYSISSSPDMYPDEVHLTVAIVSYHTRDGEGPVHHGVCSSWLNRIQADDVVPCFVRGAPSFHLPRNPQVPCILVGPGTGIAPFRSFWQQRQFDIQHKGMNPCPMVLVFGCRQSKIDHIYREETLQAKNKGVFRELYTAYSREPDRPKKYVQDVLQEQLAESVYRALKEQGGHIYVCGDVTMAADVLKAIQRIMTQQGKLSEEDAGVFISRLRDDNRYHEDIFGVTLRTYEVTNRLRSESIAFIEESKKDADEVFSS

In general, Ki refers to a dissociation constant, usually derived from enzyme kinetics or from competition with a known ligand. High values mean a looser hold on the target, low ones a stronger hold on the target.

The target of experiment [1] is Isoform PNNOS of Nitric oxide synthase, brain (PNNOS) -973,I269V,M336V,D597N] (Rattus norvegicus, UniProt P29476, D597N/I269V/M336V). The experiment in a line: Hemoglobin Capture Assay. The note with it: pH 7.4; 37 °C.
Experiment [2] concerns the target Nitric oxide synthase, brain [D597N] (Rattus norvegicus, UniProt P29476, D597N). Briefly: Hemoglobin Capture Assay. The note with it: pH 7.4; 37 °C.

Turning to `CNCCN(C)c1cncc(CCc2cc(C)cc(N)n2)c1` [4-methyl-6-[2-(5-{methyl[2-(methylamino)ethyl]amino}pyridin-3-yl)ethyl]pyridin-2-amine (14)], the Ki in experiment [1] came out at 116 nM; in experiment [2] it was 139 nM.
For `Cc1cc(N)nc(CCc2cncc(CCCN(C)C)c2)c1` [nNOS inhibitor, 6], in that order: 108 nM and 97.5 nM.
